≈ marks a conversion by molar mass, not a printed value.

Assay [1] concerns Listeria monocytogenes. Put plainly: Antibacterial activity against Listeria monocytogenes CICC 21662 assessed as bacterial growth inhibition incubated for 18 to 24 hrs by microtiter broth dilution method. It counts as functional. The conditions noted are these: time 18-24 hrs. A digest of the protocol:
(§1)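 Log-phase cells (grown overnight at 37 °C, subcultured in MHB) diluted to 10^5 CFU/mL in MHB and mixed 1:1 with serial peptide dilutions prepared in 0.01% acetic acid/0.2% BSA. Incubated 37 °C for 18-24 h. MIC is the lowest concentration giving no growth by OD492. Reported as the average of 3-5 independent experiments.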

The subject of assay [2] is Listeria monocytogenes. Put plainly: Antibacterial activity against Listeria monocytogenes CICC 21633 assessed as bacterial growth inhibition incubated for 18 to 24 hrs by microtiter broth dilution method. It counts as functional. The following applies: time 18-24 hrs. Summed up: as §1
Background: Dilution methods test growth across graded concentrations, often in twofold steps.

Assay [3] relates to Staphylococcus aureus. Put plainly: Antibacterial activity against methicillin resistant Staphylococcus aureus ATCC 43300 assessed as bacterial growth inhibition incubated for 18 to 24 hrs by microtiter broth dilution method. It counts as functional. The following applies: time 18-24 hrs. Summed up: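 Log-phase bacteria grown at 37 °C in MHB, diluted to 10^5 CFU/mL, mixed 1:1 with serial peptide dilutions (peptide diluted in 0.01% acetic acid, 0.2% BSA); 37 °C for 18-24 h. MIC read by OD492 as lowest concentration giving no growth; mean of 3-5 independent experiments.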

The subject of assay [4] is Staphylococcus aureus. Put plainly: Antibacterial activity against Staphylococcus aureus ATCC 29213 assessed as bacterial growth inhibition incubated for 18 to 24 hrs by microtiter broth dilution method. It counts as functional. The conditions noted are these: time 18-24 hrs. A digest of the protocol: as §1
Assay [5] concerns Escherichia coli. Put plainly: Antibacterial activity against Escherichia coli ATCC 35150 assessed as bacterial growth inhibition incubated for 18 to 24 hrs by microtiter broth dilution method. The conditions noted are these: time 18-24 hrs. It counts as functional. Summed up: as §1
In assay [6] the test system is Staphylococcus aureus. Put plainly: Antibacterial activity against Staphylococcus aureus GIM 1.160 assessed as bacterial growth inhibition incubated for 18 to 24 hrs by microtiter broth dilution method. It counts as functional. The conditions noted are these: time 18-24 hrs. A digest of the protocol:
as §1

The test system of a further assay is Salmonella typhimurium. Put plainly: Antibacterial activity against Salmonella typhimurium CMCC 51005 assessed as bacterial growth inhibition incubated for 18 to 24 hrs by microtiter broth dilution method. The following applies: Salmonella enterica, time 18-24 hrs. It counts as functional, Salmonella enterica subsp. enterica serovar Typhimurium. Summed up: as §1

For assay [7], the system named is Escherichia coli. The assay can be described thus: Antibacterial activity against Escherichia coli ATCC 25922 assessed as bacterial growth inhibition incubated for 18 to 24 hrs by microtiter broth dilution method. It counts as functional. The conditions noted are these: time 18-24 hrs. A digest of the protocol:
as §1

For the molecule `CC[C@H](C)[C@H](NC(=O)CN)C(=O)NCC(=O)N[C@@H](C)C(=O)N[C@H](C(=O)N[C@@H](CC(C)C)C(=O)N[C@@H](CCCCN)C(=O)N[C@H](C(=O)N[C@@H](CC(C)C)C(=O)N[C@H](C(=O)N[C@H](C(=O)NCC(=O)N[C@@H](CC(C)C)C(=O)N1CCC[C@H]1C(=O)N[C@@H](C)C(=O)N[C@@H](CC(C)C)C(=O)N[C@H](C(=O)N[C@@H](CO)C(=O)N[C@@H](Cc1c[nH]c2ccccc12)C(=O)N[C@H](C(=O)N[C@@H](CCCCN)C(=O)N[C@@H](CCCNC(=N)N)C(=O)N[C@@H](CCCCN)C(=O)N[C@@H](CCCNC(=N)N)C(=O)N[C@@H](CCC(N)=O)C(=O)N[C@@H](CCC(N)=O)C(N)=O)[C@@H](C)CC)[C@@H](C)CC)[C@@H](C)O)[C@@H](C)O)C(C)C)C(C)C` [MELITTIN], the MIC (commonly the lowest concentration that inhibits growth of the organism) with Listeria monocytogenes [1] was 0.18 µM (≈ 0.512 µg/mL); in the assay with Listeria monocytogenes [2], 0.35 µM (≈ 0.996 µg/mL); in the assay with Staphylococcus aureus [3], 1.41 µM (≈ 4.01 µg/mL); in the assay on Staphylococcus aureus [4], 1.41 µM (≈ 4.01 µg/mL); in the assay on Escherichia coli [5] it was 1.41 µM (≈ 4.01 µg/mL); in the assay with Staphylococcus aureus [6], 2.81 µM (≈ 8 µg/mL). For the same molecule, the MIC in the assay with Salmonella typhimurium was found to be 2.81 µM (≈ 8 µg/mL); with Escherichia coli [7] it was 0.35 µM (≈ 0.996 µg/mL).
